{
  "source": "patent US7739055B2",
  "about": "“Methods and systems for generating and evaluating peptides” (priority 2005, dated 2010)",
  "system": "Escherichia coli",
  "settings": "first concentration that prohibits growth by OD at 24 hours; Table 1",
  "data": [
    {"molecule": "CC[C@H](C)[C@H](NC(=O)CN)C(=O)NCC(=O)N[C@@H](C)C(=O)N[C@H](C(=O)N[C@@H](CC(C)C)C(=O)N[C@@H](CCCCN)C(=O)N[C@H](C(=O)N[C@@H](CC(C)C)C(=O)N[C@H](C(=O)N[C@H](C(=O)NCC(=O)N[C@@H](CC(C)C)C(=O)N1CCC[C@H]1C(=O)N[C@@H](C)C(=O)N[C@@H](CC(C)C)C(=O)N[C@H](C(=O)N[C@@H](CO)C(=O)N[C@@H](Cc1c[nH]c2ccccc12)C(=O)N[C@H](C(=O)N[C@@H](CCCCN)C(=O)N[C@@H](CCCNC(=N)N)C(=O)N[C@@H](CCCCN)C(=O)N[C@@H](CCCNC(=N)N)C(=O)N[C@@H](CCC(N)=O)C(=O)N[C@@H](CCC(N)=O)C(N)=O)[C@@H](C)CC)[C@@H](C)CC)[C@@H](C)O)[C@@H](C)O)C(C)C)C(C)C", "note": "[Melittin]", "values": [
      {"measurement": "MIC E. coli", "result": 16, "unit": "µg/mL"}
    ]}
  ]
}
